Reference: publication PMC3889641 (Inflammatory bowel diseases, 2013)
Read-outs that look alike come from different tables or passages of the source.

Legend:
Collagen IαI = Collagen IαI expression; format: in vivo, rat (Sprague-Dawley); settings: EtOH/Cilengitide rats, 18 mg/kg/d i.p., 42 d; mean ± SE, 12 animals per group
TGF-β1 = format: in vivo, rat (Sprague-Dawley); settings: 18 mg/kg/d i.p., 42 d

Q: For cilengitide, which “collagen IαI expression, fold decrease compared to EtOH/PBS” value (Collagen IαI) is on record?
A: 0.65 ± 0.02 fold

Q: And the “ratio of active to total TGF-β1” value (TGF-β1; EtOH/Cilengitide rats, EtOH/PBS control 0.15 ± 0.02)?
A: 0.10 ± 0.02

Q: What about the “ratio of active to total TGF-β1” value (TGF-β1; TNBS/cilengitide rats, TNBS/PBS control 0.32 ± 0.05) of the same substance?
A: 0.09 ± 0.03
